System: partial urethra obstruction model in guinea pigs
Assay: Dysuria pathological model: cystometry in partial urethra obstruction model
Format: in vivo, Hartley female guinea pigs
Conditions: guinea pig; for Frequency of occurrence of uninhibited contraction, before administration: baseline
Experimental: Three-four weeks old Hartley female guinea pigs (Japan SLC, Inc.) were given celiotomy under anesthesia with pentobarbital (30 mg/kg i.p.) and in their urethra to the peripheral side by 1-2 mm from the bladder neck, each a polyethylene tube of […] and 2.0 mm in inner diameter was placed.
The model was catheterized under anesthesia with urethane (1 g/kg i.p.) at the apex of urinary bladder and right jugular vein for cystometrography and intravenous administration, respectively. The other end of the bladder catheter was connected to a pressure transducer and infusion pump via a three way stop-cock, and physiological saline was continuously infused into the bladder through the infusion pump at a rate of 0.4 mL/min. to induce micturition reflex. Immediately after the micturition reflex was induced, infusion of physiological saline into the bladder was stopped. The intravesical pressure at the time the micturition reflex was induced was measured with the pressure transducer, and the obtained cystometrogram was recorded with pen recorder. The urine voided was collected with disposable type weighing dish and its weight was measured. Further the physiological saline remained in the bladder was sucked with syringe via the bladder catheter and the residual urine volume was measured. The operations of suspending the infusion of physiological saline upon induction of micturition reflex, and about 1 minute thereafter resuming the infusion of physiological saline to induce micturition reflex were repeated plural times (generally 4 times) to stabilize the micturition reflex.
After stabilizing the micturition reflex, a compound solution (prepared by dissolving the compound or methanesulfonic acid salt thereof in DMSO and diluting it with physiological saline or distilled water) or physiological saline was administered into the vein at a volume of 10 mL/kg over 4 minutes, and simultaneously the above-described micturition reflex operations were repeated until 30 minutes passed after initiation of the administration, while measuring the intravesical pressure and the volumes of micturition and residual urine. Also the frequency of uninhibited contraction occurrence during the above-described operations was recorded.

In the case of CC(C)c1n[nH]c2c(=O)[nH]c(Cc3cccc(Cl)c3)nc12 [Referential Example 1, reference compound], the “Frequency of occurrence of uninhibited contraction, after administration” value (0.1 mg/kg i.v.) is reported as 0.91 times/min, the “Frequency of occurrence of uninhibited contraction, after administration” value (1 mg/kg i.v.) is reported as 1.03 times/min and the “Frequency of occurrence of uninhibited contraction, quantitative change” value (1 mg/kg i.v.) is reported as −0.33 times/min. The “Frequency of occurrence of uninhibited contraction, after administration” value (3 mg/kg i.v.) was 1.09 times/min, the “Frequency of occurrence of uninhibited contraction, before administration” value (dose group 0.1 mg/kg i.v.) was 1.36 times/min and the “Frequency of occurrence of uninhibited contraction, before administration” value (dose group 1 mg/kg i.v.) was 1.36 times/min. The “Frequency of occurrence of uninhibited contraction, before administration” value (dose group 3 mg/kg i.v.) was 1.60 times/min.
